# Assay: Multi-component pharmacokinetics in rat plasma after oral administration of RB, RPA or RB-RPA extracts (UPLC-HRMS, non-compartmental analysis)
# Assay type: in vivo, Sprague-Dawley rats
# Conditions: mean ± SD, n = 7
# Experimental: (Beijing, China, No. SCXK2018-0011). […] All rats were free to access the water and food until 12 h before the experiment. The animal study was reviewed and approved by the Experimental Animal Ethical Committee of Modern Research Center for Traditional Chinese Medicine, Shanxi University (animal ethic approval number: SXULL2018018), and all experimental procedures were carried out in accordance with the NIH Guide for the Care and Use of Laboratory Animals. After one week of adaptation, twenty-one rats were divided into three groups randomly, with seven rats in each group: 1) RPA group, were oral administration of Radix Paeoniae Alba extract (45 g-herb/kg); 2) RB group, were oral administration of Radix Bupleuri extract (45 g-herb/kg); 3) RB-RPA group, were oral administration of powder mixture of Radix Bupleuri and Radix Paeoniae Alba extracts (containing 45 g-herb/kg Radix Bupleuri and 45 g-herb/kg Radix Paeoniae Alba). […] Each group received intragastric administration with a volume of 10 ml/kg (rat body weight). […] All rats were free to access the water during the experiment. The blood samples at each time point were collected from seven rats. The blood samples were centrifuged at 4,000 rpm for 10 min and frozen at -80°C until analysis. Using a Thermo-Fisher Dionex UltiMate 3000 UHPLC system coupled with a Q Exactive Orbitrap-MS (Thermo-Fisher, United States) and Xcalibur workstation (Thermo-Fisher Scientific Inc.,Waltham, MA, United States) to acquire UPLC-HRMS raw data. Chromatographic separation of herb extracts and plasma samples was performed on an Acquity UPLC HSS T3 column (2.1 mm × 100 mm, 1.8 μm) maintained at 37°C. The flow rate was 0.2 ml/min and the injection volume was 5 μL. […] Mass spectrometry detection conditions were set as follows: the MS data were acquired under positive and negative ionization modes via heated electrospray ionization (HESI) source. […] The Q Exactive Orbitrap-MS has a fast positive and negative ion switching function, which could switch between positive-negative ion modes during the analysis of the same sample. So, we applied the method of switching ion modes in the detection process to quantify all analytes better. Glycyrrhizin was selected as the internal standard because it could be detected in both positive and negative ion modes. UPLC/MS/MS calibration and quantitation data were processed with Xcalibur workstation (Thermo-Fisher Scientific Inc., Waltham, MA, United States). For the eight components with standard reference, calculating their concentrations from the standard curves. For the other 30 components without standard reference, their concentrations were analyzed following the regression equations of homologous compounds ([Qiao et al., 2012]): paeoniflorin for P1 and M1 to M3; methylgallate for M4 to M10; saikosaponin […] and […]; saikosaponin […]; saikosaponin […]; saikosaponin B2 for P11 and M25 to […].
# [1] = oral administration of mixed extracts RB-RPA
# [2] = oral administration of single extract RPA
substance,measurement,setting,value
Oxypaeoniflorin,AUC0-t,[1],93.27 ± 25.68 ng·h/mL
same,AUC0-∞,[1],99.49 ± 30.27 ng·h/mL
same,Cmax,[1],26.64 ± 7.12 ng/mL
same,t1/2,[1],2.87 ± 0.71 h
same,tmax,[1],0.58 ± 0.13 h
same,AUC0-t,[2],74.40 ± 21.91 ng·h/mL
same,AUC0-∞,[2],79.59 ± 25.23 ng·h/mL
same,Cmax,[2],21.62 ± 2.97 ng/mL
same,t1/2,[2],2.81 ± 0.72 h
same,tmax,[2],0.71 ± 0.19 h
